Data reported in ChEMBL document CHEMBL2429811, “Novel selective and potent inhibitors of malaria parasite dihydroorotate dehydrogenase: discovery and optimization of dihydrothiophenone derivatives” (J Med Chem, 2013).

Assay: Selectivity ratio of IC50 for N-terminal His10-tagged human DHODH (Met30 to Arg396) to IC50 for Plasmodium falciparum DHODH (Phe158 to Ser569)

CCOC(=O)C1=C(Nc2ccc3ccccc3c2)OCC1=O
Ratio IC50: > 14000
